Tested on: SKOV3 ovarian cancer cells
Assay: MTT antiproliferative assay on SKOV3 cells in monolayer (2D)
Conditions: SKOV3 2D, 0.156 to 80 μM, 48 h

CC1=C(CO)C(=O)O[C@@H]([C@@H](C)[C@H]2CC[C@H]3[C@@H]4C[C@H]5O[C@]56[C@@H](O)C=CC(=O)[C@]6(C)[C@H]4CC[C@]23C)C1 [WFA, withaferin A]
cytotoxic effect: dose-dependent cytotoxic effect

Reference: US20220243160A1, “Method and Apparatus for Interrogating Biological Systems” (Arizona Board of Regents on Behalf of the University of …, priority 2019, published 2022)
